One may read the IC50 as the concentration that gives 50% inhibition.

Sequences of proteins named here, by UniProt entry; tags and fusion partners are left off.
UniProt Q5S007, whole entry G2019S: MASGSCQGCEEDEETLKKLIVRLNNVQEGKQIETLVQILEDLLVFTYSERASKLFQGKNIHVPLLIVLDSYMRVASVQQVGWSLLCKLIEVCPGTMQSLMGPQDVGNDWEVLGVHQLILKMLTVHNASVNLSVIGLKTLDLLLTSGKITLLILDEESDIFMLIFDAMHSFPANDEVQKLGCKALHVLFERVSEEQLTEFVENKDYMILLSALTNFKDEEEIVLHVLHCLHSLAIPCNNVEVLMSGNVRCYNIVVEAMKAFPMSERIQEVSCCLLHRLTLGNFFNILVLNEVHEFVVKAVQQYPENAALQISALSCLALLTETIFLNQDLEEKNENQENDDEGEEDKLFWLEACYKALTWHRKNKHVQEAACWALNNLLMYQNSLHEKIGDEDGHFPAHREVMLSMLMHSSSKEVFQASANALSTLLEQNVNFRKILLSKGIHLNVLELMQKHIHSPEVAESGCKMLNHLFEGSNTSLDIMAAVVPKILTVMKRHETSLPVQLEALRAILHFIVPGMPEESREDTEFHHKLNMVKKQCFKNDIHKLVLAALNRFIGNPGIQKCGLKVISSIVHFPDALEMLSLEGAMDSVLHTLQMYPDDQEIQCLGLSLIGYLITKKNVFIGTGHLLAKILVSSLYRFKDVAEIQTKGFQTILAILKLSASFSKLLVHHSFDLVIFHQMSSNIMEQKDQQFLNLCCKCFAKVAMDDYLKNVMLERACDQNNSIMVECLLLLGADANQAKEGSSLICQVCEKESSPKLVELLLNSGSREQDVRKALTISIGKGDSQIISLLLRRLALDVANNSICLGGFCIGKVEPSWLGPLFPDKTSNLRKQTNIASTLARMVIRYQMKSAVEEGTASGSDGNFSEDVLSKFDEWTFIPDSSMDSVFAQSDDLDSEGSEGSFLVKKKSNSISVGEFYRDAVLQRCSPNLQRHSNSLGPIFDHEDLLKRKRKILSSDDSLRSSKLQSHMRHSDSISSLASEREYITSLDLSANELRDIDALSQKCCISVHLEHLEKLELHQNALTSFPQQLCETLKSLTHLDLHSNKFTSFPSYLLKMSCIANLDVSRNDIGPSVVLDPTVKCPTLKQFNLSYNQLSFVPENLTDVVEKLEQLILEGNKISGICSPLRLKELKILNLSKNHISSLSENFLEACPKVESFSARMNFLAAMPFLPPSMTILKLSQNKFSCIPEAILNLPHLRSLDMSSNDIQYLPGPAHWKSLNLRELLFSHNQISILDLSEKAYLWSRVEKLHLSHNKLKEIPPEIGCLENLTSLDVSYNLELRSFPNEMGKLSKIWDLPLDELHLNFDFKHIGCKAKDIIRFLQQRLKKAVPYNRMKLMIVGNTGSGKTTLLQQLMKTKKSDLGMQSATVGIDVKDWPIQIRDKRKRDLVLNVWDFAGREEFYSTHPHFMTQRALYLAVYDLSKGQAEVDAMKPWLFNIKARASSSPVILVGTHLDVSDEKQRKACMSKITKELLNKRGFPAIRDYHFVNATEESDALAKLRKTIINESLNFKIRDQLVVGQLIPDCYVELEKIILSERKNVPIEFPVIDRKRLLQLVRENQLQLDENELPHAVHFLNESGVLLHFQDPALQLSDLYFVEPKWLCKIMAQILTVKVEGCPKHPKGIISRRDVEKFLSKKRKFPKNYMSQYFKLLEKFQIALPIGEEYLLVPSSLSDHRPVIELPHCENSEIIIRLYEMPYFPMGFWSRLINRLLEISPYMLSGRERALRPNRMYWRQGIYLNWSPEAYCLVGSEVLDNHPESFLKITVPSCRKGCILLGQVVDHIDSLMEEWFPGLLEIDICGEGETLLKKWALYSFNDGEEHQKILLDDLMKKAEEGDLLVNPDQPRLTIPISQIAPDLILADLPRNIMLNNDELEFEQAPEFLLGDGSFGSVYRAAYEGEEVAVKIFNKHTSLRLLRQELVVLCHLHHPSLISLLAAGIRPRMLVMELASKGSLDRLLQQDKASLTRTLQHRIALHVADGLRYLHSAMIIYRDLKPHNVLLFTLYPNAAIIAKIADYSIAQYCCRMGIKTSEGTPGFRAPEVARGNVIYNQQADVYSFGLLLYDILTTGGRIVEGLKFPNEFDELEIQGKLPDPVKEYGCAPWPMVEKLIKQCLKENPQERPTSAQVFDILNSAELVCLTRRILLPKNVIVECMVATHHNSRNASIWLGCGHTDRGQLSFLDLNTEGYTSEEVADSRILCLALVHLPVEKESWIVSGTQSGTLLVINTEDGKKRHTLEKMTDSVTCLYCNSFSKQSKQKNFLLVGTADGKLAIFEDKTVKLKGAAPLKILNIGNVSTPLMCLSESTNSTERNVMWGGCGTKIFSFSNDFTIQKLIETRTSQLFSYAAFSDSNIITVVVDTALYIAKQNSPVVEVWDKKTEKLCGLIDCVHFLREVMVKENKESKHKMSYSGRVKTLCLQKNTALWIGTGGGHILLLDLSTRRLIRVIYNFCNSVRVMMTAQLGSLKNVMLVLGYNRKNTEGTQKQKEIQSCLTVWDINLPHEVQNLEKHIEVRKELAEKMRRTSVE

The text below walks through data of ChEMBL document CHEMBL4007454 (J Med Chem, 2017).

This assay addresses Leucine-rich repeat serine/threonine-protein kinase 2 (Homo sapiens, UniProt Q5S007, G2019S). Description: Inhibition of recombinant human GST-tagged LRRK2 (970 to 2527 residues) G2019S mutant expressed in baculovirus using fluorescein-ERM as substrate preincubated for 30 mins followed by substrate addition measured after 1 hr in presence of 5 mM ATP by TR-FRET assay. For orientation: In TR-FRET formats the signal depends on donor and acceptor labels being close together.

Structures are written as SMILES.

On to `CC1(Oc2ccc3[nH]nc(-c4cc(N5CCOCC5)ncn4)c3c2)CC1`, for which the IC50 amounted to 10 nM.
